Reference: patent US20250122218A1, “MODULATORS OF CYSTIC FIBROSIS TRANSMEMBRANE CONDUCTANCE REGULATOR” (Vertex Pharmaceuticals Incorporated, priority 2022, published 2025)

Chains of the proteins cited; added tags and fusions are not shown. A line that says so, or that is headed by a name, gives the form on record, which may keep a tag or linker.
UniProt P13569, with tags, fused parts or gaps DEL508-508: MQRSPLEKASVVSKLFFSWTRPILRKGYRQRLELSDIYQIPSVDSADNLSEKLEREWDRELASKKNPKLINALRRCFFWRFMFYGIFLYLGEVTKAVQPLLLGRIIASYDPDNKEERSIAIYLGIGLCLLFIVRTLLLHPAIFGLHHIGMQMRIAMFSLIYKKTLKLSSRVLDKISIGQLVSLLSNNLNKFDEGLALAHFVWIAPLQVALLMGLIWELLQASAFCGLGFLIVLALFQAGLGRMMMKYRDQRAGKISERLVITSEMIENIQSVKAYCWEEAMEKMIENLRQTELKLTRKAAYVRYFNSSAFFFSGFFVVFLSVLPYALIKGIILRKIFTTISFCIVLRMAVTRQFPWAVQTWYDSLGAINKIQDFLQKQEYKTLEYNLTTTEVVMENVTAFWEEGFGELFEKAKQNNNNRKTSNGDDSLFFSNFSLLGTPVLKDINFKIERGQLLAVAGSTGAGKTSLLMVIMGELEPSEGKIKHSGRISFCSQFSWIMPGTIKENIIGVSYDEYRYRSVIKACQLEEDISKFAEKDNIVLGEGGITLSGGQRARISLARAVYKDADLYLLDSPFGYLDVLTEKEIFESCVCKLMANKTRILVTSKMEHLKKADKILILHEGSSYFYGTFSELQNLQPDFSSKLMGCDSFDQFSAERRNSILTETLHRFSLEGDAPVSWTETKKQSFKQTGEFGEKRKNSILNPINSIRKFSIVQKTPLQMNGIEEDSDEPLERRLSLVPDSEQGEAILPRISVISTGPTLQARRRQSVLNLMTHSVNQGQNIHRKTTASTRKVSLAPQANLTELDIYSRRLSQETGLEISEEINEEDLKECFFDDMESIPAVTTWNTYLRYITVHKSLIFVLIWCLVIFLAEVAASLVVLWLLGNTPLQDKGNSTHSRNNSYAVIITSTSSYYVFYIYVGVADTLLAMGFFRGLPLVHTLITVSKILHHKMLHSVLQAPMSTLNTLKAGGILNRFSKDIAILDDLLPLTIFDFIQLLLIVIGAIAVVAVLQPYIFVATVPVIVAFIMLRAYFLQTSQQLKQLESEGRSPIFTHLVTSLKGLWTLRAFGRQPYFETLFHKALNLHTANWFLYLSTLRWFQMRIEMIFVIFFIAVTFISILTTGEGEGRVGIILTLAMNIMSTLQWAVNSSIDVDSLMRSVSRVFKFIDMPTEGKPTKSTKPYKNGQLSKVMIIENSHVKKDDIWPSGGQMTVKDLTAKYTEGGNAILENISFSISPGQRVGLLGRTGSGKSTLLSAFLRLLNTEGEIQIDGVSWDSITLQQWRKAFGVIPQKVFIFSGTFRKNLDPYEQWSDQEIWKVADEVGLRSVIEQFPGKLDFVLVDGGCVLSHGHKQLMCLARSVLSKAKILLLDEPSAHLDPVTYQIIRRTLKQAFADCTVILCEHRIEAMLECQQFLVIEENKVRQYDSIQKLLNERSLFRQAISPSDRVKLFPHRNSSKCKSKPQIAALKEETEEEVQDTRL

Target: CFTR in F508del/MF-HBE cells (Homo sapiens, UniProt P13569, DEL508-508)
Assay: Ussing chamber assay of CFTR-mediated short-circuit currents (identification of potentiator compounds)
Settings: potentiator incubated 18-24 hours at 37° C. in combination with 10 μM corrector, in the presence of 20% human serum, CFTR-mediated ISC
Description: Ussing chamber experiments were performed using human bronchial epithelial (HBE) cells derived from CF subjects heterozygous for F508del and a minimal function CFTR mutation (F508del/MF-HBE) and cultured as previously described (Neuberger T, Burton B, Clark H, Van Goor F; Methods Mol. Biol. 2011:741:39-54). After four days the apical media was removed, and the cells were grown at an air liquid interface for >14 days prior to use.
To isolate the CFTR-mediated short-circuit (ISC) current, F508del/MF-HBE grown on Costar® Snapwell™ cell culture inserts were mounted in an Ussing chamber and the transepithelial ISC was measured under voltage-clamp recording conditions (Vhold=0 mV) at 37° C. The basolateral solution contained (in mM) 145 NaCl, 0.83 K2HPO4, 3.3 KH2PO4, 1.2 MgCl2, 1.2 CaCl2), 10 Glucose, 10 HEPES (pH adjusted to 7.4 with NaOH) and the apical solution contained (in mM) 145 NaGluconate, 1.2 MgCl2, 1.2 CaCl2), 10 glucose, 10 HEPES (pH adjusted to 7.4 with NaOH) and 30 μM amiloride to block the epithelial sodium channel. […] The CFTR-mediated ISC (μA/cm^2) for each condition was determined from the peak forskolin response to the steady-state current following inhibition.
The activity of the CFTR potentiator compounds on the CFTR-mediated ISC was determined in Ussing chamber studies as described above. […]

With `CC(C)(c1ccc(CN2CCCCC[C@](O)(C(F)(F)F)C3=NN=C(O3)c3nc(c(C(F)(F)F)cc3N)C2=O)cc1)C(F)(F)F` as the molecule, how does the EC50 read?
The EC50 was less than 500 nM.
